Values quoted from earlier work as cited in PMC8198792, “Prediction of Anticancer Peptides with High Efficacy and Low Toxicity by Hybrid Model Based on 3D Structure of Peptides” (International Journal of Molecular Sciences, 2021).
Where two headings read alike, the source gives them in different places.

Legend:
[1] = system: many types of cells, including non-cancer cells; set-up: key: The majority of toxic peptides in the SATPdb are peptide toxins from ATDB [50], Tox-Prot [51], ConoServer [52] and DBETH [53]; 0: Non-toxic AMPs were retrieved from SATPdb as non-toxic peptides, that is, negative datasets; settings: toxic peptides dataset TD2; class label 1 (toxic, positive set) or 0 (non-toxic AMP, negative set); ref SATPdb; cited from earlier work
Source text: Supplement ijms-22-05630-s001.zip/Toxic Peptides(seguence).xlsx, sheet "TD1" | column: Activity || Supplement ijms-22-05630-s001.zip/Toxic Peptides(seguence).xlsx, sheet "TD2" | column: Activity || Supplement ijms-22-05630-s001.zip/Toxic Peptides(seguence).xlsx, sheet "TD3" | column: Activity

cancer cell lines = system: cancer cell lines; set-up: method as in 6 sources, ref CancerPPD [45] and SATPdb ||| ref CancerPPD/SATPdb ||| ref CancerPPD, SATPdb, Swissprot (PDB) ||| ref CancerPPD/SATPdb/Swissprot(PDB) ||| ref CancerPPD / SATPdb ||| ...; settings: cited from earlier work
Source text: Supplement ijms-22-05630-s001.zip/ACPs(seguence).xlsx, sheet "D1" | column: Activity || Supplement ijms-22-05630-s001.zip/ACPs(seguence).xlsx, sheet "D2" | column: Activity || Supplement ijms-22-05630-s001.zip/ACPs(seguence).xlsx, sheet "D3" | column: Activity || (+ 2 further places)

Sequence | Activity [1] | Activity (cancer cell lines; ACPs dataset D1, 1 = ACP (positive), 0 = non-ACP (negative), label taken from databases, ref CancerPPD [45] and SATPdb) | Activity (cancer cell lines; ACPs dataset D4 (sheet "D4"), label 1 = ACP, experimentally validated ACPs, ref CancerPPD [45] and SATPdb) | Activity (cancer cell lines; ACPs dataset D5 (sheet "D5"), label 1 = ACP (positive set), sequences with CancerPPD/SATPdb ID, ref CancerPPD, SATPdb) | Activity (cancer cell lines; ACPs dataset sheet D2, 1 = ACP (CancerPPD/SATPdb ID), 0 = non-ACP (Swissprot/PDB ID), ref CancerPPD, SATPdb, Swissprot (PDB))
ACDTATCVTHRLAGLLSRSGGVVKNNFVPTNVGSKAF [satpdb15418] | 0 |  |  |  | 
LTFEHYWAQLTS [compound 4579] |  | 1 | 1 | 1 | 1
